## Binding of CDR-mutated scFvs to a peptide of the spike HR2 region

Data: MIT Lincoln Laboratory AlphaSeq set, Engelhart et al. 2022, doi:10.1038/s41597-022-01779-4, as distributed in FLAb.

Target peptide (SARS-CoV-2 spike, HR2 region): PDVDLGDISGINAS

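The starting antibody came from a phage panning campaign against this peptide. Library AAYL52 holds single substitutions and randomly drawn double and triple substitutions in the CDRs. The scFvs were displayed on barcoded MATa yeast, the peptide on MATalpha yeast. The frequency of each diploid, read from paired DNA barcodes, reflects how well the two displayed proteins bind. Each replicate has its own calibration line, from reference interactions of the BCL2 family. There are three technical replicates.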

The variants keep the heavy chain, the linker and the frameworks of Ab-95 (scFv order VH, a 15-residue (Gly4Ser)3 linker, VL).
VH: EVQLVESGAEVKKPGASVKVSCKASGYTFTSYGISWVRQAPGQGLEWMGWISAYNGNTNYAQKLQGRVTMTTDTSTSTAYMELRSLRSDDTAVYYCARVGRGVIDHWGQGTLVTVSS
VL: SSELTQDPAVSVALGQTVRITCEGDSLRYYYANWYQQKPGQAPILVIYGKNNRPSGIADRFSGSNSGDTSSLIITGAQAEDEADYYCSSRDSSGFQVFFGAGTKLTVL

Variants are written as CDR1, CDR2 and CDR3 of the light chain (limits as in the source). Parent: EGDSLRYYYAN, GKNNRPS, SSRDSSGFQVF.
Affinities are written as log10 Kd with Kd in nM; a lower number is a better binder.
A pair that was not seen in that replicate is written "nd"; this usually means weak binding, but a binder can also be missed.
Parent in this assay: reference entry 2.31, copy in this library 2.25.

CDR-L1 | CDR-L2 | CDR-L3 | replicates, log10 nM | signal with controls
EGDSLRYVYWN | NKNNRPS | SSRDSSGFQVF | nd 3.18 nd | 1 of 9 (4.21)
EGDSFRYYYAN | GKNNRPS | SSRASSGFEVF | 3.16 2.56 2.29 | 4 of 9 (3.85)
EGDSLRYYYAY | GKNNRPS | SSRVSSGFQKF | nd 5.87 nd | 7 of 9 (4.12)
CGDSLRYYYAN | YKNNRPS | SSRDWSGFQVF | 4.33 nd 4.40 | 0 of 9
EGDSLRYYNAN | GKKNRPS | SSRDSSPFQVF | 2.56 2.35 2.34 | 4 of 9 (3.95)
EGDSLRYPYAN | GKNNRPS | SSYDSAGFQVF | 4.11 4.03 3.81 | 4 of 9 (4.14)
AGDSLRYYYAN | GKRNRPS | HSRDSSGFQVF | 3.32 3.71 4.52 | 6 of 9 (4.15)
EGDSLRYYYAV | GKNNRPS | SSRDSSGLHVF | 4.60 3.65 nd | 3 of 9 (4.09)
ETDSLRYEYAN | GKNNRPS | SSRDASGFQVF | 1.96 2.27 1.64 | 5 of 9 (3.77)
EGRSVRYYYAN | GKNNRPG | SSRDSSGFQVF | 2.18 1.99 1.96 | 3 of 9 (4.17)
ESDSLRYPYAN | GKINRPS | SSRDSSGFQVF | 2.95 2.48 nd | 3 of 9 (3.56)
EGDSLRYYYAN | LKNNRPS | SRRDSSGDQVF | nd nd nd | 4 of 9 (3.66)
EGDSWRYYYAN | GKNNRPS | SSRDKSGFQEF | 2.05 2.03 1.74 | 1 of 9 (4.05)
RFDSLRYKYAN | GKNNRPS | SSRDSSGFQVF | 3.32 3.72 nd | 2 of 9 (3.97)
EGDSLRYYYAN | GKPNRPS | KSRPSSGFQVF | 2.96 4.08 nd | 0 of 9
EGDSLRYYYAF | GKNNRPS | SHRDKSGFQVF | nd 4.87 nd | 1 of 9 (4.29)
EGDSLRYYYAN | FKNNRPS | STCDSSGFQVF | 3.65 nd nd | 5 of 9 (3.79)
SGDSLRYYYAN | GKNNRPS | GSRDSSGFQVM | 2.56 2.38 2.18 | 1 of 9 (4.08)
EGDRLQYYYAN | GKNNRPS | SSRASSGFQVF | 3.72 nd 3.76 | 3 of 9 (4.43)
EGDSLRYYYAN | GDNNRPS | SNRDSSGFQVF | 3.15 3.29 2.02 | 1 of 9 (3.97)
EGDSLRYYYAN | GKINRPS | SSRDSLGFAVF | nd nd nd | 0 of 9
EGDSLRYYYAN | GKNNRPP | SSYDSSGFQVF | 2.87 2.45 3.25 | 2 of 9 (3.13)
EGDSLRTYYAN | GKNNRPS | SSRDSSGFQVL | 2.46 2.24 1.66 | 2 of 9 (3.91)
EGTSLRYYYAN | GKNNYPS | SMRDSSGFQVF | 3.70 nd nd | 3 of 9 (3.29)
EGDSLLYYYAN | GKNNRPS | SSRYLSGFQVF | nd nd nd | 2 of 9 (2.74)
EGDSLRYYYAN | GKNGRPS | SSRDSSWLQVF | 3.84 4.43 2.98 | 3 of 9 (3.63)
EGDSLRYYYPN | GKNNRPS | SSWDSSGFQVT | nd 4.10 nd | 4 of 9 (4.15)
YGDSLRYYYAN | GKNNRPS | MSRDSSGFQTF | 4.14 3.97 3.22 | 3 of 9 (3.88)
EGNSLRYYYAN | GVNNRPS | SSRGSSGFQVF | nd 3.34 nd | 1 of 9 (4.01)
EGDSLRYYYAN | GKNNRSS | SSRCSSGFQVQ | 3.05 3.07 2.44 | 4 of 9 (4.53)
WGDSDRYYYAN | GKNNRPS | RSRDSSGFQVF | 4.37 nd nd | 0 of 9
HGDSLRYYYAN | GKNNRPS | SMRYSSGFQVF | nd nd nd | 0 of 9
EGDSLRYYYAN | GKNNRPS | SSRCSRGFWVF | 2.81 3.15 3.46 | 5 of 9 (4.19)
EGDSLRYYYAN | GKNNRFS | SSRFSSGSQVF | nd 4.01 nd | 3 of 9 (4.19)
SGDSLRYYYAN | GKNNRSS | SSRDSSGFFVF | 2.44 2.23 2.34 | 5 of 9 (3.69)
NGVLLRYYYAN | GKNNRPS | SSRDSSGFQVF | 3.53 3.66 nd | 4 of 9 (3.49)
EGDSLRFYYAN | GKNNRPS | ISRDSSGFQSF | 2.64 2.58 3.13 | 1 of 9 (3.05)
EYDSLRYIYIN | GKNNRPS | SSRDSSGFQVF | 2.84 2.85 3.02 | 1 of 9 (3.70)
EGDSLRYYYFN | YKNNRPS | SSRDSSRFQVF | nd nd 3.68 | 2 of 9 (3.75)
EGDSMRYYYAN | GKNIRPS | SSRDASGFQVF | 2.96 2.93 2.95 | 0 of 9
EGDSLYYYYCN | GKNNRPS | SSRDSSGGQVF | 4.50 3.31 2.58 | 6 of 9 (3.65)
WGDSLRYYYAN | GKNNRPS | SSRDSSGFQVF | 2.44 1.99 2.31 | 2 of 9 (3.39)
EGDSHRGYYAN | YKNNRPS | SSRDSSGFQVF | 3.68 nd nd | 6 of 9 (4.43)
EGDSLRYHYAN | DKNNRPS | SSRDSSGFQVM | 1.43 1.22 1.31 | 2 of 9 (3.62)
EHDSLRYYYAN | GKNNDPS | SSRDSSGFQVF | nd nd nd | 2 of 9 (4.46)
EGDSLRYCYAN | GKNNRPS | SSRDLSGFQVL | 2.47 2.16 2.49 | 4 of 9 (4.62)
EGDSLRYYYAC | YANNRPS | SSRDSSGFQVF | 3.92 4.46 nd | 6 of 9 (4.13)
EPDSLRCYYAN | GKNNRPS | SSRDSSHFQVF | nd nd nd | 2 of 9 (3.88)
EGDSLRYYYAN | MKNNRES | SSRDSSGFQVG | nd 4.43 4.63 | 2 of 9 (4.34)
TGDMLRYYYAN | GKNNRPS | SSRDSSGFQVH | 3.98 5.40 3.93 | 3 of 9 (3.81)
EGDPLRYYYAN | GKGNRIS | SSRDSSGFQVF | 3.60 4.08 3.06 | 3 of 9 (3.34)

Three control strains display no target. For library AAYL52, 28% of the pairings with them gave a signal, with a median of 3.91 and one signal in twenty below 2.90, so weak values seen in few replicates may be background. The control count says in how many pairings with the empty strains this scFv gave a signal, with their mean in brackets.